Protein sequences, listed by entry. Tags and fused reporters are not part of them. Chains listed by the source or under a name are the forms on record and can include a tag or linker.
UniProt Q9UM73, with tags, fused parts or gaps G1202R: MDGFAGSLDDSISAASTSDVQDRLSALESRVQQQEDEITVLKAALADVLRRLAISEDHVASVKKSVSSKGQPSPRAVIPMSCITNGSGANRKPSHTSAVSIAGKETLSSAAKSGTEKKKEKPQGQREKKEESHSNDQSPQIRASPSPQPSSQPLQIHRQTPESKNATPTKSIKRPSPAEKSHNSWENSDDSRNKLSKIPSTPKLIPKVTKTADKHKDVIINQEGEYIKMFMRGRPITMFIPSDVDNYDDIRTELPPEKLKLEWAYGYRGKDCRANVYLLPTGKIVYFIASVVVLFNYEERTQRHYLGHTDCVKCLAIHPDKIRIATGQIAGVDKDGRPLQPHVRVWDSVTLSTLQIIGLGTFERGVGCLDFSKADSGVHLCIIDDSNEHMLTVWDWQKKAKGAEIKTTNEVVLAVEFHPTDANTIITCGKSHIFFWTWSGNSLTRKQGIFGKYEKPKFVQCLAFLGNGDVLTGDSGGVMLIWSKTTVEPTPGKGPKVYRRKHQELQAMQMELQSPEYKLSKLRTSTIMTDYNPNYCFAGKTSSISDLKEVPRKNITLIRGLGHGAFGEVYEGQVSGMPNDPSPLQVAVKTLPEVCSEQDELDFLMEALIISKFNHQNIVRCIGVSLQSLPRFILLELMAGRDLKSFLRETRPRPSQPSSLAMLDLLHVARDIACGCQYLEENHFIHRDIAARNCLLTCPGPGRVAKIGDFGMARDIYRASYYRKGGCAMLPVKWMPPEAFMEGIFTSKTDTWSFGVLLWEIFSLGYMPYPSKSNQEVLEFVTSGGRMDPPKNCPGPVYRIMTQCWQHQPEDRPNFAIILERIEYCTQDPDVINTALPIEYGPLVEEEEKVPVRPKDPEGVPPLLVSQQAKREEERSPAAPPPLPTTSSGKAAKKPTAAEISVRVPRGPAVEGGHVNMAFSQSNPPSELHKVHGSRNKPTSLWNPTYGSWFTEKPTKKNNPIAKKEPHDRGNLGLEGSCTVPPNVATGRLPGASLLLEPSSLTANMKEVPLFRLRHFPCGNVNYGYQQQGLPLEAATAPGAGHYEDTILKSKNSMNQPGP

According to patent US20240336643A1, “BIFUNCTIONAL COMPOUNDS THAT DEGRADE ALK AND USES THEREOF” (DANA-FARBER CANCER INSTITUTE, INC., priority 2021, published 2024):

Target: HiBiT G1202R Variant 1 EML4-ALK (Homo sapiens, UniProt Q9UM73, G1202R)
Format: cell-based
Conditions: read-out: BAF3 Cellular Degradation - HiBiT G1202R Variant 1 EML4-ALK: DC50; Ba/F3 cells, 0.0003-2 μM, 4 hours

In the case of COc1cc(CCN2CCC(c3ccc4c(c3)CN(C3CCC(=O)NC3=O)C4=O)CC2)c(C)cc1Nc1ncc(Cl)c(Nc2ccccc2S(=O)(=O)C(C)C)n1 (stereo not shown) [Compound 27, 3-(5-(1-(4-((5-chloro-4-((2-(isopropylsulfonyl)phenyl)amino)pyrimidin-2-yl)amino)-5-methoxy-2-methylphenethyl)piperidin-4-yl)-1-oxoisoindolin-2-yl)piperidine-2,6-dione], the DC50 is reported as 8 nM.
